Tested on: P. aeruginosa clinical isolates
Design: species or system Pseudomonas aeruginosa
Details: predicted from mutations and resistance genes found by array in 60 isolates

## CC(C)(O/N=C(\C(=O)N[C@@H]1C(=O)N2C(C(=O)[O-])=C(C[n+]3ccccc3)CS[C@H]12)c1csc(N)n1)C(=O)O [Ceftazidim, ceftazidime]
  Cumulative resistance predicttion deduced from array: 40%

— patent US20090215638A1, “ANTIBIOTIC SUSCEPTIBILITY AND VIRULENCE FACTOR DETECTION IN PSEUDOMONAS AERUGINOSA” (priority 2005, published 2009)
